Molecular target: T1, human MATE1 (Homo sapiens, UniProt Q96FL8)
T1 sequence (Q96FL8 1-570): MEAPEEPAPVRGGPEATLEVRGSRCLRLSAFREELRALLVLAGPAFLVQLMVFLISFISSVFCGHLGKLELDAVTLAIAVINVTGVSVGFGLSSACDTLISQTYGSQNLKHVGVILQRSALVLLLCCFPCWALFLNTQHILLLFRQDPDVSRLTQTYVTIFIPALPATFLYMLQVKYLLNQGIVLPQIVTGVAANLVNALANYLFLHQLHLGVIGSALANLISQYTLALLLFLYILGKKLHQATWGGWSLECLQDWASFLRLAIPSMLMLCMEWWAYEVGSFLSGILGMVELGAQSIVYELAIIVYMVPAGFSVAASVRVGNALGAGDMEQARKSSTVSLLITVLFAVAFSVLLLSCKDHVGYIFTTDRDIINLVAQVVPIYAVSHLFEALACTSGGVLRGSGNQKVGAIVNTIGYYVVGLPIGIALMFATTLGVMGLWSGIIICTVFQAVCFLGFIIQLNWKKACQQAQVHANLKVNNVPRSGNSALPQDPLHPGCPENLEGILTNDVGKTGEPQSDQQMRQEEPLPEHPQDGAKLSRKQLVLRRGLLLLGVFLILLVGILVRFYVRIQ
Test: cell-based

CNC(=C[N+](=O)[O-])NCCSCc1ccc(CN(C)C)o1 [ranitidine]
IC50: 4.04 µM

From article PMC4792735 (Clinical pharmacokinetics, 2016)
